# Measured values from ChEMBL document CHEMBL5625262, “Discovery and first-time disclosure of CVN766, an exquisitely selective orexin 1 receptor antagonist” (Bioorg Med Chem Lett, 2024).
# Amino acid sequences for entries named in this document (tags omitted).
# UniProt O43613, whole entry: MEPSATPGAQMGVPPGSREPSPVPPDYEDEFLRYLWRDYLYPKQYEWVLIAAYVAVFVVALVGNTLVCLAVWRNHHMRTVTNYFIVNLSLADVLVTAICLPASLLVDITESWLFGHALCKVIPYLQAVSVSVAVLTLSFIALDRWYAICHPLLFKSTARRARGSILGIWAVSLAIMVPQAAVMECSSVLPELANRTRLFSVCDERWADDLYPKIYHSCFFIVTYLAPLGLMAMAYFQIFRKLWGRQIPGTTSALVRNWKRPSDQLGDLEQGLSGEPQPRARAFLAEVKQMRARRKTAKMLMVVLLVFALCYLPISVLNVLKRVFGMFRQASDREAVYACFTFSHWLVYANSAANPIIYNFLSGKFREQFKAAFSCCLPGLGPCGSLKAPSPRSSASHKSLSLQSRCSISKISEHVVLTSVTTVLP
# pKi: −log10 of the molar value.
# Molecular target: Orexin/Hypocretin receptor type 1 (Homo sapiens, UniProt O43613)
# Assay: Displacement of 3H-SB-674042 from human Ox1R expressed in CHO cell membranes by liquid scintillation counting method
# Parameters: species or system Membrane
smiles,measurement,value
Cc1ccc(-n2nccn2)c(C(=O)N2CCN(c3nc4cc(Cl)ccc4o3)CC[C@H]2C)c1 [SUVOREXANT],pKi,9.17
